## Yeast mating assay 2: variants of the scFv Ab-91

Source: Engelhart et al. 2022 (doi:10.1038/s41597-022-01779-4), MIT Lincoln Laboratory and A-Alpha Bio; data file from the FLAb repository.

The target is the same throughout: PDVDLGDISGINAS, from the HR2 region of SARS-CoV-2 spike.

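AAYL51 was designed without a model: most single CDR substitutions and a random sample of double and triple ones. Affinity was read by AlphaSeq, a pooled yeast mating assay with surface-displayed partners. Binding brings cells together so that they mate, and sequencing counts the barcode pairs among the diploids. The ratio of observed to expected reads was calibrated, replicate by replicate, on BCL2-family standards whose Kd was known from biolayer interferometry. Mating was done three times.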

Ab-91 is the parent antibody, in scFv form: VL, then three GGGGS repeats, then VH. The light chain is unchanged in all variants.
VL: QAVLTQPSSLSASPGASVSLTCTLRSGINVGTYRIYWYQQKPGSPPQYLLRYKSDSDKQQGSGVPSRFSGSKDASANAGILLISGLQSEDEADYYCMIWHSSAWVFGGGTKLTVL
VH: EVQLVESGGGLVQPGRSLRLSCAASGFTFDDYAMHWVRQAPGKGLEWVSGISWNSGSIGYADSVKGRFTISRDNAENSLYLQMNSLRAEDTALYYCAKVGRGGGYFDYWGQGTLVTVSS

Positions count from residue 1 of the parent VH; F29D puts D in place of F.
Every variant below is changed at A61 of the VH (sequential numbering).
Values are apparent Kd, the geometric mean of the replicates that gave a signal; lower means stronger binding.
A pair that was not seen in any replicate is written "no signal"; this usually means weak binding, but a binder can also be missed.
Nonspecific signal, from three strains lacking the peptide, appeared in 21% of pairings of library AAYL51, centred on 34 µM (5% of these signals below 1.8 µM); values are not corrected for it.
For reference, the parent read 72 nM as the reference entry and 7.5 nM as a member of this library.

For F29D A61I Y108S, the assay gave no signal (0 of 3 replicates). The variant M34E S52D A61I gave no signal (0 of 3 replicates). With D30Y I51Q A61P the result was no signal (0 of 3 replicates). The variant I51D A61K G104Y showed 610 µM (1 of 3 replicates). The variant F29A H35M A61I showed no signal (0 of 3 replicates). The variant F27A A61K G100D gave no signal (0 of 3 replicates).

The variant N54L A61M gave 1.2 mM (1 of 3 replicates). For A61L V64I, the assay gave 630 nM (3 of 3 replicates). The variant D30E H35M A61S showed 490 nM (1 of 3 replicates). With A61C G103R the result was no signal (0 of 3 replicates). The variant Y32Q S52P A61V gave no signal (0 of 3 replicates). For G56W Y60K A61S, the assay gave 6.7 µM (1 of 3 replicates).

With A61E K65S the result was 1.5 µM (3 of 3 replicates). With F27R A61E G100N the result was no signal (0 of 3 replicates). The variant N54S A61N gave 3.4 µM (2 of 3 replicates). The variant W53G A61F V99I showed 2.7 nM (3 of 3 replicates). The variant F29D S52C A61W showed no signal (0 of 3 replicates). For S52I A61P G100T, the assay gave no signal (0 of 3 replicates).

With G26C T28Q A61F the result was 1.2 µM (1 of 3 replicates). The variant T28K D31T A61D gave 9.7 nM (3 of 3 replicates). The variant G50H G59N A61P gave 69 µM (3 of 3 replicates). With A33T A61T G100A the result was 5.8 µM (1 of 3 replicates). For G50Y Y60P A61Y, the assay gave 170 µM (2 of 3 replicates). With M34P A61C G100L the result was 610 µM (1 of 3 replicates).

The variant S55G G56S A61H gave 1.3 µM (3 of 3 replicates). The variant M34N A61T G104D showed no signal (0 of 3 replicates). With A61N G100Q D107K the result was 2.7 µM (1 of 3 replicates). For T28L A61E Y108M, the assay gave no signal (0 of 3 replicates). The variant A61N D62M gave 660 µM (3 of 3 replicates). With S55E A61W D62V the result was no signal (0 of 3 replicates).

For D30K D31A A61Y, the assay gave 2.1 µM (3 of 3 replicates). For W53F A61D G104Q, the assay gave 16 nM (3 of 3 replicates). With H35C A61P the result was no signal (0 of 3 replicates). The variant M34R A61Y G103S gave no signal (0 of 3 replicates). The variant D31Q I51L A61D showed 380 nM (3 of 3 replicates). With D30S A61E D107Q the result was 1.8 µM (3 of 3 replicates).

The variant M34N A61I Y108K showed 190 µM (3 of 3 replicates). The variant S55F A61D V99N gave no signal (0 of 3 replicates). The variant G26F A61D G100P gave no signal (0 of 3 replicates). The variant G50Q N54M A61H showed 24 µM (1 of 3 replicates). With A33E A61C Y105N the result was 74 µM (3 of 3 replicates). With G26R S52M A61E the result was 81 µM (2 of 3 replicates).